The assay addresses Adenosine receptor A3 (Homo sapiens) (UniProt P0DMS8). In words: Positive allosteric modulation of human A3 adenosine receptor transfected in HEK293 cell membranes assessed as potentiation of 5-(2-chloro-6-((3-iodobenzyl)amino)-9H-purin-9-yl)-3,4-dihydroxy-N-methyltetrahydrofuran-2-carboxamide induced [35S]GTP-gammaS binding by measuring fold increase in maximal efficacy of agonist at 0.1 uM pretreated for 1 hr followed by agonist addition and measured after 2 hrs by liquid scintillation counting method relative to control. The following applies: Membrane, filed as positive allosteric modulator, time 3.0 hrs.

Sequences of proteins named here, by UniProt entry; tags and fusion partners are left off.
UniProt P0DMS8, whole entry: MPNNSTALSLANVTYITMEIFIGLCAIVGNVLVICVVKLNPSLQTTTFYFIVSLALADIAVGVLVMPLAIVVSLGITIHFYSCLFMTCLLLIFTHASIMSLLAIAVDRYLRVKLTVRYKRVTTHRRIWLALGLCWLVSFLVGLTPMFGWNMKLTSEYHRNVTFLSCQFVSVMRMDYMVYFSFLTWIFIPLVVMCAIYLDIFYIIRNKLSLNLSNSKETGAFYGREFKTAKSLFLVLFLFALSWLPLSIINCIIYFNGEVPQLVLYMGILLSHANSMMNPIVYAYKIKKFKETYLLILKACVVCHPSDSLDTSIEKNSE

Each structure is given as a SMILES string.

With `Clc1ccc(Nc2nc3ccccc3c3nc(C4CCCCC4)[nH]c23)cc1Cl`, the fold change (FC) is 2.

For the origin of these results see ChEMBL document CHEMBL5523738, “Lipid Trolling to Optimize A3 Adenosine Receptor-Positive Allosteric Modulators (PAMs)” (J Med Chem, 2024).
